Measured values as given in EP4821930A1, “SUBSTITUTED POLYCYCLIC COMPOUND” (dated 2026).

By UniProt entry, the sequences of proteins in these tests, tags left out. Chains listed by the source or under a name are the forms on record and can include a tag or linker.
UniProt O00255, with tags, fused parts or gaps: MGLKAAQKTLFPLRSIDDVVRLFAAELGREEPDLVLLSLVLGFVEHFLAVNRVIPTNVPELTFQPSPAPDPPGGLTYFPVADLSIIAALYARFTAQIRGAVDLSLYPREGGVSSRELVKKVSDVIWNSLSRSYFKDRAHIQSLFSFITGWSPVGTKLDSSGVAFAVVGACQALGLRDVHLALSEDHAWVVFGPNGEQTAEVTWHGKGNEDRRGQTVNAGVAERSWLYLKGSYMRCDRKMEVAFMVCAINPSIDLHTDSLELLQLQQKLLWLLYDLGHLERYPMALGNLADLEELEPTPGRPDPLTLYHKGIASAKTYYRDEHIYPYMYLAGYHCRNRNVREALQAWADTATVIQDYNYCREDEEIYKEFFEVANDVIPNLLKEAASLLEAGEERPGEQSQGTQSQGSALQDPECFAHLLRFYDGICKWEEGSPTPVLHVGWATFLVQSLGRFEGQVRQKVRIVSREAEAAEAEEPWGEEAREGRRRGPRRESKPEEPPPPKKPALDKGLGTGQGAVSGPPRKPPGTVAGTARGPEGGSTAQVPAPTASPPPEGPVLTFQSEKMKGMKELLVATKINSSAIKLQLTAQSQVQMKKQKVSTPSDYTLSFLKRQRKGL
UniProt O00255, with tags, fused parts or gaps M327I: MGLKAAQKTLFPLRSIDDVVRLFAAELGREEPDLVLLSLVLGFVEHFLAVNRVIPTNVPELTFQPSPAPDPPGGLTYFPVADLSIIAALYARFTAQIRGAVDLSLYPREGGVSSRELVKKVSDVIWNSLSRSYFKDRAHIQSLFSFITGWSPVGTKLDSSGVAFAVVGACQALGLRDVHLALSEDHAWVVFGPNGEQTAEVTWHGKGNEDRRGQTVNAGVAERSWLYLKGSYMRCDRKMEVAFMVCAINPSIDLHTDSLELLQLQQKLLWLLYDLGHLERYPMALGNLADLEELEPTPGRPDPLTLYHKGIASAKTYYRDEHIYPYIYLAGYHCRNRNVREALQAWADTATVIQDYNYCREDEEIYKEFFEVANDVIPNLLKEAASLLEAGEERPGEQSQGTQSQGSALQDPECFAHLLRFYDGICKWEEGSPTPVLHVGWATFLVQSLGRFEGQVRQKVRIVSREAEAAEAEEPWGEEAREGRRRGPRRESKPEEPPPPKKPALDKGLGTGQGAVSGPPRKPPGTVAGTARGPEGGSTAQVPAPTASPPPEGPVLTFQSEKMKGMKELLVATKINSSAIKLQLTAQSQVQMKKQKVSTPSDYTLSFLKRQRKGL

Legend:
[1] = system: Menin mutant proteins; conditions: Menin mutants (M327, G331, T349); cited from earlier work
[2] = system: Menin^M327I/MOLM13 cells; assay: Menin^M327I/MOLM13 cell proliferation inhibition (CellTiter-Glo); conditions: read-out: IC50 (nM) Menin^M327I/MOLM13, 7 days incubation
Procedure: The Menin^M327I DNA sequence was inserted into the lentiviral vector pCDHL-CMV-3xFlag-puroR via restriction enzyme digestion and ligation. The construct was co-transfected with psPAX2/pMD2G into 293T cells. After 48 hours, the virus was harvested and used to infect MOLM13 cells. Pool and monoclonal selections were performed using puromycin to ultimately obtain a stable cell line stably expressing the Menin^M327I recombinant protein.
MOLM13 cells are human acute myeloid leukemia cells that contain the MLL-AF9 fusion protein. In this experiment, different concentrations of compounds will be incubated with Menin^M327I/MOLM13 cells for 7 days, and viable cells will be detected using Promega's CellTiter-Glo assay.
MOLM13 cells were cultured in RPMI-1640 medium supplemented with 20% fetal bovine serum. One day prior to compound addition, cells were seeded into 96-well cell culture plates at 500 cells per well in a volume of 195 µL per well. Compounds were dissolved in DMSO to a final concentration of 10 mM. The 10 mM compound stock was then serially diluted 3-fold in DMSO to obtain 10 concentrations. For each concentration, 2 µL was taken and added to 48 µL of RPMI-1640 medium for a 25-fold dilution, and then added as a 40× compound to the prepared cell suspension. After co-incubation in the incubator for 7 days, 35 µL of Cell-Titer Glo was added, and the mixture was allowed to stand at room temperature for 10 minutes. Fluorescence signals were read on a CLARIO starPlus instrument, and finally the IC50 value for cell proliferation inhibition was calculated using GraphPad Prism 5.0.

[3] = target: Wild-type Menin-MLL (Homo sapiens, UniProt O00255); assay: Fluorescence polarization binding assay (FP assay), inhibition of wild-type Menin-MLL binding; conditions: read-out: IC50 (nM) Menin^wt, 5 nM Menin, 2 nM FITC-MLL (4-43), 23 °C, 1 hour
Excerpt: Wild-type Menin binds with high affinity to the conserved N-terminal sequence of MLL. Compounds bind to Menin by competing with the MLL N-terminus. FITC-MLL (4-43) (synthesized by GenScript) contains the conserved sequence responsible for MLL binding to Menin. We established a method to detect the binding activity between Menin and MLL using a fluorescence polarization binding assay (FP assay), which was then used to evaluate the inhibitory activity of compounds. The specific procedure is as follows: Compounds were serially diluted 5-fold in 100% DMSO starting from 1 mM (8 concentrations in total). For each concentration, 2 µL was added to 48 µL of reaction buffer (50 mM NaCl, 50 mM Tris (pH 7.5), 0.05% Tween-20, 1 mM DTT) and mixed thoroughly to obtain 4× compound solutions (reaching final assay concentrations of 10000, 2000, 400, 80, 16, 3.2, 0.64, 0 nM) for later use. Use reaction buffer to prepare 2× Menin to a final assay concentration of 5 nM, and 4× FITC-MLL (4-43) to a final assay concentration of 2 nM. Add 5 µL of the 4× compound solution to a 384-well plate (OptiPlate-384, purchased from PerkinElmer). Then add 10 µL of the 2× Menin solution and centrifuge. After that, add 5 µL of FITC-MLL (4-43) and centrifuge again to initiate the reaction. Incubate at 23 °C for 1 hour protected from light. After the reaction, the signal was read on an EnVision 2104 Multilabel Reader (purchased from PerkinElmer) at an excitation wavelength of 480 nm and an emission wavelength of 535 nm. The data were analyzed using GraphPad Prism (data analysis software) to obtain the IC50 values of the compounds.

[4] = system: MV-4-11 cells expressing wild-type Menin protein; assay: MV-4-11 cell proliferation inhibition (CellTiter-Blue); conditions: read-out: IC50 (nM) MV-4-11, 72 hours incubation
Procedure: MV-4-11 cells are human acute myeloid leukemia cells that contain the MLL-AF4 fusion protein. In this experiment, after incubating different concentrations of the compounds with MV-4-11 cells, the CellTiter-Blue® detection reagent from Promega was used to establish a screening method for the inhibition of MV-4-11 cell proliferation.
MV-4-11 cells were cultured in RPMI-1640 medium (Biological Industries, Cat. No. 01-100-1ACS) supplemented with 10% fetal bovine serum (Biological Industries, Cat. No. 04-001-1ACS), under conditions of 37°C and 5% CO2. The cells were subcultured 2 - 3 times per week. Cells were seeded into 96-well cell culture plates (Corning®) at 5,000 cells per well in 195 µL/well and incubated at 37°C with 5% CO2. After 24 hours, compounds were serially diluted 3-fold in 100% DMSO starting from 10 mM (10 concentrations in total). Then, 4 µL of each compound concentration was added to 96 µL of RPMI-1640 medium and mixed well. Subsequently, 5 µL of the diluted compound from each concentration was added to the prepared cell suspension, and the compounds were co-incubated with the cells in a cell culture incubator for 72 hours (3 days). Then, 35 µL of CellTiter-Blue reagent (Promega, Cat. No. G8082) was added, and the reaction was incubated at 37°C with 5% CO2 for 4 hours. Fluorescence values were read on a BMG Clariostar Microplate Reader, and the data were processed using GraphPad Prism software to calculate the IC50 value of the compound for cell proliferation inhibition.

[5] = target: Menin^M327I (Homo sapiens, UniProt O00255, M322I); assay: Fluorescence polarization binding assay (FP assay), inhibition of mutant Menin-MLL binding; conditions: read-out: IC50 (nM) Menin^M327I, 5 nM Menin^mut, 2 nM FITC-MLL (4-43), 23 °C, 1 hour
Excerpt: The Menin^mut DNA sequence was cloned into the pET28a vector via restriction enzyme digestion and ligation. The recombinant protein was expressed using the BL21 E. coli system and purified by Ni-NTA to obtain Menin^mut. Menin binds with high affinity to the conserved N-terminal sequence of MLL, and compounds bind to Menin by competing with the MLL N-terminus. FITC-MLL (4-43) (synthesized by GenScript) contains the conserved sequence responsible for MLL binding to Menin. We employed a fluorescence polarization binding assay (FP assay) based on the principle that the binding of FITC-MLL (4-43) to Menin^mut increases the molecular weight and enhances fluorescence, to evaluate the inhibitory effect of compounds on the binding between Menin^mut and MLL. The detailed procedure is as follows: Compounds were dissolved in DMSO to a final concentration of 10 mM. The 10 mM compound solution was then diluted 10-fold with DMSO, followed by 5-fold serial dilutions to obtain a total of 8 concentrations. For each concentration, 2 µL was added to 48 µL of reaction buffer (50 mM NaCl, 50 mM Tris, pH 7.5, 0.05% Tween-20, 1 mM DTT) and mixed thoroughly to obtain 4× compound solutions (reaching final assay concentrations of 10000, 2000, 400, 80, 16, 3.2, 0.64, 0 nM) for later use. Use reaction buffer to prepare 2× Menin^mut to a final assay concentration of 5 nM, and 4× FITC-MLL (4-43) to a final assay concentration of 2 nM. Add 5 µL of the 4× compound solution to a 384-well plate (OptiPlate-384, purchased from PerkinElmer). Then add 10 µL of the 2× Meninmut solution and centrifuge. After that, add 5 µL of FITC-MLL (4-43) and briefly centrifuge to initiate the reaction. Incubate at 23 °C for 1 hour protected from light. After the reaction, the signal was read on an EnVision 2104 Multilabel Reader (purchased from PerkinElmer) at an excitation wavelength of 480 nm and an emission wavelength of 535 nm. For each compound, the inhibitory effect was determined at 8 concentrations. The data were processed using GraphPad Prism software to calculate the half-maximal inhibitory concentration (IC50) of the compound for Menin-MLL binding.

[6] = Pharmacokinetic study in SD rats; conditions: male SD rats, oral, 10 mg/kg, 0.5% MC + 0.1% SDS
Procedure: Male SD rats were obtained from Beijing Vital River Laboratory Animal Technology Co., Ltd. The rats were divided into groups of three animals each, and the test sample suspension (10 mg/kg, formulated in 0.5% MC + 0.1% SDS) was administered orally by gavage. The animals were fasted overnight prior to the experiment, with food withheld from 10 hours before dosing until 4 hours after dosing. Blood samples were collected at 0.25, 0.5, 1, 2, 4, 6, 8, and 24 hours after dosing. Following anesthesia with isoflurane using a small animal anesthesia machine, 0.3 mL of whole blood was collected from the retro-orbital venous plexus into heparin anticoagulant tubes. The samples were centrifuged at 4000 rpm for 5 minutes at 4°C, and the plasma was transferred to centrifuge tubes and stored at -80 °C until analysis. Plasma samples were extracted using the protein precipitation method, and the extracts were analyzed by LC/MS. Table 3. Pharmacokinetic parameters of the example compounds.

Row | Compound | binding affinity of Menin mutant proteins [1] | IC50 [2] | IC50 [3] | IC50 [4] | IC50 [5] | AUC0-inf [6] | Cmax [6] | T1/2 [6] | Tmax [6]
1 | CCN(C(=O)c1cc(F)ccc1Oc1cncnc1N1CC2(CCN(C[C@H]3CC[C@H](NS(=O)(=O)CC)CC3)CC2)C1)C(C)C | significantly reduced | – | – | – | – | – | – | – | –
2 | CCN(C(=O)c1cc(F)ccc1-n1c2c(c3c(C)cncc31)CC1(C2)CN(C(CCCN(C)CCOC)C(C)C)C1)C(C)C (racemic) | – | 24.2 nM | 11.1 nM | 4.8 nM | 9 nM | 633 ng·h/mL | 66.7 ng/mL | 21.2 h | 1.67 h
